Screening results (PubChem BioAssay)
PINK1 expr mod – modulators of PINK1 expression. PINK1 immunofluorescence, high-content cytometry, 24 h. AID 624263. 410,000 compounds, 0.2% hits. Potency, µM (series often up to 76.6 µM), inactives show top-dose activation (PINK1 increase), actives largely listed as activators; active = well fitted activation curve with a large enough effect; inconclusive = small, poorly fitted or top-dose-only effect; cell line not stated here; note: potency is the fitted concentration of half-maximal effect; % of control where 0% means no effect; nearly all actives have a fitted effect of over 65% in size
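Measures PINK1 amount and localization on or inside mitochondria by immunofluorescence. Stable cells get compounds at 5 concentrations for 24 hours before fixation and staining; CCCP controls included.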
Pin1 inh – human Pin1 inhibition; Q13526; Pin1 FP peptide displacement, HiFluor488, 10 min; Potency, µM (top dose mostly 115 µM), for inactives: top-dose activity, negative = inhibition, hits mostly inhibitors; 390,000 compounds, 0.009% hits; active = well fitted inhibition curve with a large enough effect in the polarisation, with a control signal flat, not every such curve was filed as active; inconclusive = small, poorly fitted or top-dose-only effect, or effect the other way, or a change in a side signal; inactive = no such curve, though single readings can be large or run the other way; the % refers to the polarisation; note: potency is the fitted concentration of half-maximal effect; % is set by controls: 0 for no effect and ±100 for the full control effect
B2AR arrestin – recruits beta-arrestin to the human beta2-adrenergic receptor; P07550; beta-arrestin recruitment to beta2AR, cell-based reporter; Potency, µM (series often up to 46.1 µM), without a hit: at the highest dose activation, usual class: activators; 330,000 compounds, 0.02% hits;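 note: potency is the fitted concentration of half-maximal effect; 0% = DMSO controls and full agonism = EC100 isoproterenol or metaproterenol; nearly all actives have a fitted effect of over 65% in size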
BCR signal inh – inhibitors of chronic active B-cell receptor signaling. ABC-DLBCL IkBa-CBG/CBR reporter, luminescence ratio, 4 h. Potency, µM (highest dose often 46.1 µM), without a hit: at the top dose activity change, negative = inhibition, hits mostly inhibitors. 340,000 compounds, 0.05% hits. AID 493014; active = well fitted inhibition curve with a large enough effect in the signal ratio, with a control signal flat, not every such curve was filed as active; inconclusive = small, poorly fitted or top-dose-only effect, or effect the other way, or a change in a side signal; the % refers to the signal ratio;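 note: potency is the fitted concentration of half-maximal effect; plate controls were basal doxycycline-induced cells for no effect and cells given 10 µM MG132 for full effect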
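Concentration-response series (up to 46 uM) were applied to TMD8 dual-reporter cells for 4 h at 37C with doxycycline. Green/red ratio, after filter-overlap correction, defined %Activity; red signal alone was normalised to basal cells and zero luminescence.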
miR-21 reporter – raises the signal of a miR-21 reporter; HeLa miR-21 FLuc reporter, luciferase, 48 h; Potency, µM (series often up to 38.3 µM), inactives show top-dose reporter change, positive = more light; 340,000 tested, under 10 active; active = well fitted rising curve with a large enough effect; inconclusive = small, poorly fitted or top-dose-only effect; inactive = no such curve, though single readings can be large or run the other way;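 also: % of control where 0% means no effect; miR-21 action dims this reporter so a rising signal means less miR-21 action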
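Using DMEM plus 10% FBS, HeLa miR-21-FLuc cells are incubated with test compounds (final up to about 40uM) for 48 hours; firefly luciferase signal is then imaged following reagent-mediated lysis.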
PKM2 activator – PKM2 (human) enzyme activation | AID 1631 | P14618 | Potency, µM (top dose mostly 57.5 µM), for inactives: at the highest dose activation, actives largely listed as activators | 260,000 compounds, 0.34% hits | purified PKM2, Kinase-Glo ATP luminescence, activation; response scale: 0% is enzyme alone, no compound; note: potency is the fitted concentration of half-maximal effect; % is set by controls: 0 for no effect and ±100 for the full control effect; nearly all actives have a fitted effect of over 55% in size
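ATP formation by purified human PK-M2, quantified via coupled luciferase luminescence after 1 h at room temperature with 0.1 mM ADP and 0.5 mM PEP final.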
An asterisk follows results filed as active; [ ] = remark or other dose. This is a sample that favours compounds with a hit; in the whole collection about 0.46% have one here. Unless noted, calls come from the whole dose curve; as a rule, active = well fitted curve in the direction sought with a large enough effect; inconclusive = small, poorly fitted or top-dose-only effect, or another doubt; inactive = no such curve, though single readings can be large; an effect the other way counts as inactive or inconclusive.

Screening O=c1[nH]c(=O)n(Cc2ccco2)c(O)c1C=NCc1cccs1 returned PINK1 expr mod -2%[38.3 µM], Pin1 inh 0%, miR-21 reporter -1% and PKM2 activator 28µM*.
Screening O=c1[nH]c(=S)n(Cc2ccco2)c(O)c1C=NCc1cccs1 returned PINK1 expr mod -1%, Pin1 inh inconclusive, B2AR arrestin 0%, BCR signal inh -2%, miR-21 reporter -2% and PKM2 activator -1%.
Screening CCc1nn2c(=O)cc(N3CCN(C)CC3)nc2s1 returned Pin1 inh 5%.
For Cc1ccccc1-[n+]1c(-c2ccccc2)cc(-c2ccccc2)cc1-c1ccccc1 the results were PINK1 expr mod 10µM*, Pin1 inh -2%, B2AR arrestin 0% and BCR signal inh inconclusive.
`[O-]c1ccccc1-[n+]1c(-c2ccccc2)cc(-c2ccccc2)cc1-c1ccccc1` gave PINK1 expr mod 16µM*, Pin1 inh -2%, B2AR arrestin 0% and BCR signal inh inconclusive.
For Brc1ccc(-[n+]2c(-c3ccccc3)cc(-c3ccccc3)cc2-c2ccccc2)cc1 the results were PINK1 expr mod 25µM*, Pin1 inh 2%, B2AR arrestin -1% and BCR signal inh inconclusive.
CN1C(=O)C(=Cc2ccc(Sc3ccccc3)o2)C(=O)N(C)C1=O was read as PINK1 expr mod 1%, Pin1 inh 0%, B2AR arrestin 0%, BCR signal inh 0%, miR-21 reporter 0% and PKM2 activator 20%.
For O=C1NC(=O)C(=Cc2ccc(Sc3ccccc3)o2)C(=O)N1 the results were PINK1 expr mod 1%, Pin1 inh inconclusive, B2AR arrestin 3%, BCR signal inh inconclusive, miR-21 reporter 11% and PKM2 activator 20µM*.
`Nc1ccc2c3c(cccc13)-c1ccccc1-2` gave PINK1 expr mod 11µM*.
`CNc1ccc2c3c(cccc13)C(=O)N(C)C2=O` gave PINK1 expr mod 1%, Pin1 inh inconclusive, B2AR arrestin 0%, BCR signal inh inconclusive and miR-21 reporter -15%.
For O=C1NC(=O)C(=Cc2coc3ccc(O)cc3c2=O)C(=O)N1 the results were PINK1 expr mod 6%, Pin1 inh -7%, B2AR arrestin -1%, BCR signal inh 0%, miR-21 reporter -1% and PKM2 activator 32µM*.
CN1C(=O)C(=Cc2coc3ccccc3c2=O)C(=O)N(C)C1=O was read as PINK1 expr mod 9%, Pin1 inh -12%, B2AR arrestin 4%, BCR signal inh -6%, miR-21 reporter -14% and PKM2 activator -2%.

Of the compounds above, 2 have an NH in an aromatic ring.
Screening O=c1[nH]c(=O)n(Cc2ccco2)c(O)c1C=NCc1cccs1 returned PINK1 expr mod -2%[38.3 µM], Pin1 inh 0%, miR-21 reporter -1% and PKM2 activator 28µM*.
Screening O=c1[nH]c(=S)n(Cc2ccco2)c(O)c1C=NCc1cccs1 returned PINK1 expr mod -1%, Pin1 inh inconclusive, B2AR arrestin 0%, BCR signal inh -2%, miR-21 reporter -2% and PKM2 activator -1%.

(cont.)
CN1CC=C2C(C#N)=C(N)C(C#N)(C#N)C(c3ccncc3)C2C1 (stereo unspecified) was read as PINK1 expr mod 25µM*, Pin1 inh inconclusive, B2AR arrestin 0%, BCR signal inh inconclusive, miR-21 reporter -1% and PKM2 activator 5%.
O=C(Cn1c(=O)oc2cc(S(=O)(=O)NCc3ccccc3)ccc21)N(CCO)Cc1ccccc1 was read as PINK1 expr mod -1%, Pin1 inh 0%, BCR signal inh inconclusive and miR-21 reporter 13%.
Screening Cc1nn(-c2ccccc2)c(Cl)c1C1C(C#N)=C(N)Oc2c1c(=O)oc1ccccc21 (stereo unspecified) returned PINK1 expr mod 1%, Pin1 inh 1%, B2AR arrestin 0%, BCR signal inh -17%, miR-21 reporter -2% and PKM2 activator -13%.
For Cc1nn(-c2ccccc2)c2c1C(c1ccc(F)cc1F)C(C#N)=C(N)O2 (stereo unspecified) the results were PINK1 expr mod 11µM*, Pin1 inh -1%, B2AR arrestin 5%, BCR signal inh 20%, miR-21 reporter -2% and PKM2 activator 5%.
For COc1ccc(C(=O)Nc2ccc3c(c2)N(C)C(=O)c2ccccc2S3)cc1OC the results were PINK1 expr mod 7%, Pin1 inh 21%, BCR signal inh -24% and miR-21 reporter inconclusive.
Screening CCc1ccc(CN2CCN(Cc3cc(Br)ccc3O)CC2)cc1 returned PINK1 expr mod 40µM*, Pin1 inh inconclusive, B2AR arrestin 0%, BCR signal inh inconclusive, miR-21 reporter 5% and PKM2 activator 2%.
`Cc1ccc(NC(=O)c2cc(S(=O)(=O)N3CCOCC3)c(Cl)cc2Cl)cc1` gave PINK1 expr mod 7%, Pin1 inh 0% and miR-21 reporter inconclusive.
`COCCCNC(=O)c1c(N)n(Cc2ccco2)c2nc3ccccc3nc12` gave PINK1 expr mod -2%, Pin1 inh -2%, B2AR arrestin 0%, BCR signal inh 26%, miR-21 reporter 7% and PKM2 activator 25µM*.
`CCCC1=Nc2cc(C(=O)NC3CCCCC3)ccc2Sc2ccc(C)cc21` gave PINK1 expr mod 2%, Pin1 inh 5%, BCR signal inh inconclusive and miR-21 reporter 24%.
`C[C@H]1O[C@@H](O[C@H]2[C@@H](O)C[C@@H](O[C@H]3[C@@H](O)C[C@H](O[C@H]4CC[C@@]5(C)[C@H](CC[C@@H]6[C@@H]5CC[C@]5(C)[C@@H](C7=CC(=O)OC7)CC[C@]65O)C4)O[C@@H]3C)O[C@@H]2C)C[C@H](O)[C@@H]1O` gave PINK1 expr mod -1%.
Cc1ccc(N2C(=O)NC(=O)/C(=C/c3ccc(-c4ccc(C(=O)O)c(Cl)c4)o3)C2=O)cc1 was read as PINK1 expr mod -1%, Pin1 inh inconclusive, B2AR arrestin 0%, BCR signal inh 5%, miR-21 reporter 1% and PKM2 activator 25µM*.
For Cc1cc(/C=C2\C(=O)NC(=O)N(c3ccc(Cl)cc3)C2=O)c(C)n1-c1sc2c(c1C#N)CCCC2 the results were PINK1 expr mod 2%, Pin1 inh inconclusive, B2AR arrestin 0%, BCR signal inh -6%, miR-21 reporter 0% and PKM2 activator 26%.
Screening CCOC(=O)c1c(-n2c(C)cc(/C=C3\C(=O)NC(=O)N(C)C3=O)c2C)sc2c1CCCC2 returned PINK1 expr mod -2%, Pin1 inh 28%, B2AR arrestin 0%, BCR signal inh 3%, miR-21 reporter -3% and PKM2 activator 16µM*.
For C[n+]1c(-c2ccccc2)cc(CCCCc2cc(-c3ccccc3)[n+](C)c(-c3ccccc3)c2)cc1-c1ccccc1 the results were PINK1 expr mod 32µM*, Pin1 inh 26%, B2AR arrestin 0%, BCR signal inh 8%, miR-21 reporter inconclusive and PKM2 activator 16%.

Two records picked at random from the list so far:
`COCCCNC(=O)c1c(N)n(Cc2ccco2)c2nc3ccccc3nc12` gave PINK1 expr mod -2%, Pin1 inh -2%, B2AR arrestin 0%, BCR signal inh 26%, miR-21 reporter 7% and PKM2 activator 25µM*.
Cc1ccc(N2C(=O)NC(=O)/C(=C/c3ccc(-c4ccc(C(=O)O)c(Cl)c4)o3)C2=O)cc1 was read as PINK1 expr mod -1%, Pin1 inh inconclusive, B2AR arrestin 0%, BCR signal inh 5%, miR-21 reporter 1% and PKM2 activator 25µM*.
